{
  "source": "PubChem BioAssay AID1508624",
  "about": "(National Center for Advancing Translational Sciences (NCATS), 2021)",
  "note": "Only a part is listed here, and it is no random draw. Records with an inconclusive call do not appear. Activity calls are given as the source filed them. Calls follow the shape of the dose curve; as a rule, active = well fitted activation curve with a large enough effect; inconclusive = small, poorly fitted or top-dose-only effect, or another doubt; inactive = no such curve, though single readings can be large or run the other way.",
  "data": [
    {"assay": "Primary qHTS for Identification of Small Molecule Activators of Huntingtin-Antisense Promoter Activity; also: nearly all actives have a fitted effect of over 55% in size", "settings": "HEK293 HTT-AS promoter firefly luciferase reporter, 24 h, percent change from vehicle, -100% = no light; at 57.5 µM (top of the series) unless noted", "source_text": "Assay Provider: Russell L. Margolis M.D.\nDepartment Neurology, Johns Hopkins University School of Medicine, Baltimore, MD\nHuntington's Disease (HD) is a neurodegenerative disorder caused by a CAG repeat expansion in exon 1 of huntingtin (HTT). While there are currently no disease-modifying treatments for HD, recent efforts have focused on development of nucleotide-based therapeutics to lower HTT expression. As an alternative to siRNA or oligonucleotide methods, we hypothesized that suppression of HTT expression might be accomplished by small molecules that either (1) directly decrease HTT expression by suppressing HTT promoter activity or (2) indirectly decrease HTT expression by increasing the promoter activity of HTT-AS, the gene antisense to HTT that appears to inhibit expression of HTT.\nWe developed and employed a high throughput screen for modifiers of HTT and HTT-AS promoter activity using luminescent reporter HEK293 cells; of the 52,041 compounds tested, we identified 898 replicable hits. We used a rigorous stepwise approach to assess compound toxicity and the capacity of the compounds to specifically lower huntingtin protein in 5 different cell lines, including HEK293 cells, HD lymphoblastoid cells, mouse primary neurons, HD iPSCs differentiated into cortical-like neurons, and HD hESCs. We found no compounds which were able to lower huntingtin without lowering cell viability in all assays, though the potential efficacy of a few compounds at non-toxic doses could not be excluded.\nSEQUENCE No. (1, 2, 3, etc.); […] (e.g., Cells, Incubation, Reagent, etc.); VALUE and DESCRIPTION.\n1; Reagent; 4 uL; 2,500 Hek293 luciferase reporter cells per wells\n3; Compound; 23 nL; Control inhibitor / compound library\n5; Reagent; 2.5 uL; Firefly Luc reagent; Dual-Glo Luciferase Reporter Assay System (Promega)\n6; Time; 10 min; room temperature incubation\n7; Detection; Luminescence; FLuc\nNOTES (numbers refer to sequence above)\n1; High-throughput screening, measuring luminescence from a Hek293 luciferase reporter, was performed in 1,536 well white-walled tissue-culture treated plates. 2,500 cells were plated in 4 µL of Opti-MEM per well using a Multidrop Combi Reagent Dispenser (ThermoFisher).\n2; Assay plates were cultured for 24 hours.\n3; Control inhibitor (PTC124; final concentration of 50 uM) and compound library (at final concentrations of 460 nM - 57.5 uM) were added to the assay plate using the Kalypsis Pintool Robotic System equipped with 1536 pinheads.\n4; Cells were then incubated for 24 hours at 37 degrees C prior to luminescence measurements.\n5; In all cases, luminescence was measured using the Dual-Glo Luciferase Reporter Assay System (Promega) following the manufacturer's instructions.\n6; Room temperature incubation.\n7; Luminescence signal was obtained using the PerkinElmer ViewLux plate reader. Results were normalized to vehicle control (0% activity) and zero RLU (-100% activity).", "values": [
      {"smiles": "CCNC(C)Cc1ccc2c(c1)OCO2", "note": "(stereo unspecified)", "activity change, positive = activation": "inactive: -10.8% [at 116 µM]"},
      {"smiles": "Cc1cc([N+](=O)[O-])cc([N+](=O)[O-])c1O", "activity change, positive = activation": "inactive: -91.8% [at 116 µM]"},
      {"smiles": "CN(C(=O)Cc1ccccc1)[C@H]1CC[C@@]2(CCCO2)C[C@@H]1N1CCCC1", "activity change, positive = activation": "inactive: -3.58%"},
      {"smiles": "CCn1c(=O)n([C@@H]2CCN(CC3CCCCCCC3)C[C@@H]2CO)c2ccccc21", "activity change, positive = activation": "inactive: -12.8%"},
      {"smiles": "NC(=O)Nc1ccc([As](=O)(O)O)cc1", "activity change, positive = activation": "inactive: -5.25%"},
      {"smiles": "CN(C(=O)Cc1ccc(Cl)c(Cl)c1)[C@H]1CC[C@@]2(CCCO2)C[C@@H]1N1CCCC1", "activity change, positive = activation": "inactive: -10.4%"}
    ]}
  ]
}
